# Results taken from patent publication US11325944B2 (priority 2017, dated 2022).
# Protein sequences, listed by entry. Tags and fused reporters are not part of them. Lines headed by an entry give the natural chain unless they say otherwise; changes in a name come on top.
# UniProt P33534: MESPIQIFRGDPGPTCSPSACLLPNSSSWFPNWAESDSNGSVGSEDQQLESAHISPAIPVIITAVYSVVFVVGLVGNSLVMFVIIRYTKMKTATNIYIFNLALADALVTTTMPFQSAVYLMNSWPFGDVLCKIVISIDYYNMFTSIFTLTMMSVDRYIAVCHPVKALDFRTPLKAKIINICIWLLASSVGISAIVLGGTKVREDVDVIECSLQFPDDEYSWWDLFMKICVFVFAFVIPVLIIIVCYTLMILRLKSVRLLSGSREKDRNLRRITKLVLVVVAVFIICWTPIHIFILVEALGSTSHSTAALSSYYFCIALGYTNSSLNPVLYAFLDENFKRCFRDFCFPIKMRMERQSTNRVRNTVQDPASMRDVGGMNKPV
# Biological target: KOR (Mus musculus, UniProt P33534)
# Assay: 55° C. warm water tail withdrawal test, antagonism of the KOR agonist U50,488
substance,measurement,setting,value
cyclo[Phe-cis-D-Hyp(Gly)^2-Phe-D-Trp],"antagonism of U50,488 administered i.p.",30 nmol i.c.v. (FIG. 8),significant antagonism
same,"antagonism of U50,488 administered i.p.",100 nmol i.c.v. (FIG. 8),significant antagonism
same,KOR antagonism after subcutaneous administration,"30 mg/kg subcutaneous (FIG. 8, FIG. 9)",significant KOR antagonism
